Laboratory results published in ChEMBL document CHEMBL5375970, “Discovery of Potent and Selective WDR5 Proteolysis Targeting Chimeras as Potential Therapeutics for Pancreatic Cancer” (J Med Chem, 2023).

What was measured:
[1] = target: WD repeat-containing protein 5 (Homo sapiens, UniProt P61964)

`Cc1ncsc1-c1ccc(CNC(=O)[C@@H]2C[C@@H](O)CN2C(=O)[C@@H](NC(=O)CNC(=O)c2ccc(F)c(-c3ccc(N4C[C@@H](C)N(C)[C@@H](C)C4)c(NC(=O)c4c[nH]c(=O)cc4C(F)(F)F)c3)c2)C(C)(C)C)cc1` was tested. Which deltaH [1] did it give?
Its deltaH is -4.24 kcal/mol.

What about the deltaH (Homo sapiens) of the same molecule?
Its deltaH is -2.96 kcal/mol.
